Screens deposited in PubChem BioAssay by National Center for Advancing Translational Sciences (NCATS).
Sfp inh: Sfp phosphopantetheinyl transferase inhibition | Q9F4F7 | 310,000 compounds, 3.5% hits | Biochemical Sfp PPTase activity, qHTS | Potency, µM, actives largely listed as inhibitors;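 also: the enzyme is Sfp with the accession as filed and its product quenches rhodamine fluorescence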
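Buffer: 50 mM Hepes-Na pH 7.6, 10 mM MgCl2, 0.01% Nonidet P-40, 0.01% BSA. Enzyme 15 nM, pre-exposed to compound 15 min; substrates then added and fluorescence change tracked over 30 min.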
G9a inh: G9a (human) methyltransferase inhibition | Q96KQ7 | G9a H3K9 monomethylation, AlphaScreen, 2 h | Potency, µM (series often up to 102 µM), actives largely listed as inhibitors | 350,000 compounds, 8.8% hits | AID 504332; also: nearly all actives have a fitted effect of over 75% in size
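Readings reflect AlphaScreen signal from monomethyl-H3K9 antibody detection. HMT at 20 nM; substrate b-H3K9 500 nM; cofactor SAM 20 uM; 2 h RT reaction; compounds tested as titrations in qHTS with 15 min preincubation.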
miR-21 reporter: miR-21 reporter, rising signal | HeLa miR-21 FLuc reporter, luciferase, 48 h | Potency, µM (top dose mostly 38.3 µM) | 340,000 tested, under 10 active | AID 2288; active = well fitted rising curve with a large enough effect; inconclusive = small, poorly fitted or top-dose-only effect; inactive = no such curve, though single readings can be large or run the other way;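 further: miR-21 action dims this reporter so a rising signal means less miR-21 action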
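HeLa cells stably expressing CMV-driven firefly luciferase with a downstream miR-21 binding sequence, endogenously expressing miR-21, were treated with titrations (up to about 40uM final) for 48 hours at 37 degree Celsius. Luciferase luminescence was read after lysis.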
LMNA splice mod: changes lamin A minigene splicing in HeLa cells; HeLa LMNA splicing GFP/RFP minigene ratio, 48 h; Potency, µM (highest dose often 46.1 µM), actives largely listed as inhibitors; 200,000 compounds, 0.01% hits; active = well fitted inhibition curve with a large enough effect in the signal ratio, with a control signal flat, not every such curve was filed as active; inconclusive = small, poorly fitted or top-dose-only effect, or effect the other way, or a change in a side signal; the % refers to the signal ratio
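S3 HeLa cells stably expressing lamin A-EGFP splicing minigene plus DsRed2, 600 cells/well, 48 h compound exposure at 37C. Laser-scanning cytometry; analysed as GFP (500-530 nm)/RFP (575-640 nm) total intensity ratio; 0.5% DMSO vehicle.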
JMJD2E inh: JMJD2E (human) inhibition | B2RXH2 | JMJD2E catalytic domain, FDH-coupled NADH fluorescence (FDH is formaldehyde dehydrogenase) | Potency, µM (doses to about 57.1 µM), actives largely listed as inhibitors | 230,000 compounds, 1.6% hits; active = well fitted inhibition curve with a large enough effect, not every such curve was filed as active; inconclusive = small, poorly fitted or top-dose-only effect, or another doubt; inactive = no such curve, though single readings can be large or run the other way; also: nearly all actives have a fitted effect of over 50% in size
ALDH1A1 inh: blocks purified human ALDH1A1 activity; Potency, µM (doses to about 75.3 µM), hits mostly inhibitors; P00352; 220,000 compounds, 7.3% hits; Purified ALDH1A1, NADH fluorescence, propionaldehyde substrate; active = well fitted inhibition curve with a large enough effect, not every such curve was filed as active; inconclusive = small, poorly fitted or top-dose-only effect, or another doubt; inactive = no such curve, though single readings can be large or run the other way
Each line names hits and unclear results; the compound was inactive in the other large screens; ! = not active in a repeat. Hits are enriched below; roughly 13% of the tested compounds scored in any of these assays. Unless noted, calls follow the shape of the dose curve; as a rule, active = well fitted curve in the direction sought with a large enough effect; inconclusive = small, poorly fitted or top-dose-only effect, or another doubt; inactive = no such curve, though single readings can be large; an effect the other way counts as inactive or inconclusive.

C#CCN1C(=O)C(O)(CC(=O)c2ccc(OC)c(OC)c2)c2ccccc21 (stereo not drawn)	ALDH1A1 inh 0.355µM
C#CCN1C(=O)C(O)(CC(=O)c2ccc(OC)c(OC)c2)c2cc(Br)ccc21 (stereo not drawn)	none (no result: Sfp inh, LMNA splice mod, JMJD2E inh, ALDH1A1 inh)
CC(CNC(=O)c1ccc2c(c1)nc1n2CCCCC1)c1ccccc1 (stereo not drawn)	LMNA splice mod inconclusive (no result: Sfp inh, JMJD2E inh, ALDH1A1 inh)
Cc1ccc(S(=O)(=O)C(CNS(=O)(=O)c2cc(F)ccc2F)c2cccs2)cc1 (stereo not drawn)	none (no result: Sfp inh, JMJD2E inh, ALDH1A1 inh)
Cc1c(N)cc(N)cc1C(=O)O	G9a inh 79.4µM, JMJD2E inh inconclusive (no result: LMNA splice mod, ALDH1A1 inh)
CC1CCN(c2ccc3c(c2)S(=O)(=O)c2cccc(C(=O)NC4CCCCC4)c2C3=O)CC1	none (no result: Sfp inh, miR-21 reporter, LMNA splice mod, JMJD2E inh, ALDH1A1 inh)
Cc1ccc(C)c(NC(=O)C[n+]2ccccc2)c1	none (no result: LMNA splice mod, JMJD2E inh, ALDH1A1 inh)
OCCCc1ccccc1	none (no result: G9a inh, miR-21 reporter, LMNA splice mod, JMJD2E inh, ALDH1A1 inh)
Nc1ccccc1C#CCCCCO	JMJD2E inh 20µM!, ALDH1A1 inh inconclusive
O=C(Cn1cc(S(=O)(=O)N2CCN(c3ccccc3F)CC2)c2ccccc2c1=O)Nc1ccc(F)cc1Cl	none (no result: Sfp inh, LMNA splice mod, JMJD2E inh, ALDH1A1 inh)
O=C(O)c1ccccc1C(=O)NCC(O)c1ccccc1 (stereo not drawn)	G9a inh 7.94µM, LMNA splice mod inconclusive, JMJD2E inh inconclusive
O=C(CNC(=O)c1ccccc1C(=O)O)c1ccccc1	G9a inh 20µM, ALDH1A1 inh 25.1µM
CC(C)C[C@@H](/C=C/S(C)(=O)=O)NC(=O)[C@H](CC(C)C)NC(=O)[C@H](CC(C)C)NC(=O)OCc1ccccc1	ALDH1A1 inh inconclusive (no result: miR-21 reporter, LMNA splice mod, JMJD2E inh)
Cn1c2cc(Br)sc2c2cnn(Cc3ccc(F)cc3)c(=O)c21	none (no result: Sfp inh, miR-21 reporter, LMNA splice mod, JMJD2E inh, ALDH1A1 inh)
c1ccc2c(c1)nc(NCCN1CCOCC1)c1nncn12	G9a inh 50.1µM
c1ccc(N2CCN(c3nc4ccccc4n4cnnc34)CC2)cc1	JMJD2E inh inconclusive
c1ccc2c(c1)CCN(c1nc3ccccc3n3cnnc13)C2	G9a inh 50.1µM, JMJD2E inh inconclusive, ALDH1A1 inh inconclusive
c1ccc(CN2CCN(c3nc4ccccc4n4cnnc34)CC2)cc1	G9a inh 50.1µM
Clc1cccc(N2CCN(CCNc3nc4ccccc4n4cnnc34)CC2)c1	none
CCCCNc1nc(C)nc2c1nc(-c1ccccc1)n2CCCN(C)C	JMJD2E inh inconclusive, ALDH1A1 inh inconclusive (no result: G9a inh, miR-21 reporter, LMNA splice mod)
O=C(c1cnn2c(C(F)(F)F)cc(-c3ccc(Br)cc3)nc12)N1CCOCC1	none
Cc1nn2c(C(F)(F)F)cc(-c3ccc(Cl)cc3)nc2c1C(=O)N1CCOCC1	Sfp inh inconclusive, ALDH1A1 inh 11.2µM
Cc1csc(=O)n1CCC(=O)OCC(=O)NNC(=O)c1ccccc1	G9a inh 56.2µM (no result: Sfp inh, miR-21 reporter, LMNA splice mod, JMJD2E inh, ALDH1A1 inh)
Cc1csc(=O)n1CCC(=O)OCC(=O)Nc1ncc(Cl)cc1Cl	G9a inh 44.7µM (no result: Sfp inh, miR-21 reporter, LMNA splice mod, JMJD2E inh, ALDH1A1 inh)
CCOC(=O)Cc1csc(NC(=O)c2cccc(OC)c2)n1	none
COc1cccc(C(=O)NNC(=O)Cc2csc(N)n2)c1	Sfp inh 56.2µM
CCOC(=O)c1oc2c(C)c(O)ccc2c(=O)c1-c1nncn1-c1ccccc1	none
CCOC(=O)c1oc2c(O)c(O)ccc2c(=O)c1-c1nncn1-c1ccccc1	Sfp inh inconclusive, G9a inh 3.16µM, JMJD2E inh 7.94µM
COCCNC(=S)N1CCN(Cc2ccc3c(c2)OCO3)CC1	none (no result: LMNA splice mod, JMJD2E inh, ALDH1A1 inh)
O=C(CCn1c(=O)oc2ccccc21)Nc1ccccc1	Sfp inh inconclusive, G9a inh 35.5µM, ALDH1A1 inh inconclusive
O=C(CCCn1c(=O)oc2ccccc21)Nc1ccccc1	none (no result: Sfp inh, miR-21 reporter, LMNA splice mod, JMJD2E inh, ALDH1A1 inh)
O=C(CCn1c(=O)oc2ccccc21)NCCCN1CCN(c2ccc(F)cc2)CC1	G9a inh 2.51µM
O=C(CCn1c(=O)oc2ccccc21)NCc1ccc2c(c1)OCO2	ALDH1A1 inh 15.8µM
COc1cc(CN2CC(=O)N(c3cc(Cl)ccc3C)C2=S)cc(OC)c1OC	G9a inh inconclusive (no result: LMNA splice mod, JMJD2E inh, ALDH1A1 inh)
Cc1ccc(N2CCN(C(=O)c3c(C)oc4ncnc(N5CCCCC5)c34)CC2)c(C)c1	none (no result: Sfp inh, JMJD2E inh, ALDH1A1 inh)
COc1cccc(-c2cncnc2N(C)Cc2ccco2)c1	Sfp inh inconclusive, ALDH1A1 inh inconclusive (no result: miR-21 reporter, JMJD2E inh)
Oc1cccc2c(NC(=S)Nc3ccc(OC(F)F)cc3)cccc12	Sfp inh 56.2µM, G9a inh 44.7µM, LMNA splice mod inconclusive, ALDH1A1 inh inconclusive
